Source: ChEMBL document CHEMBL6134806, “Oligonucleotide-based telomerase inhibitors with a photoresponsive α-chloroaldehyde” (Bioorg Med Chem Lett, 2025)

Protein sequences, listed by entry. Tags and fused reporters are not part of them. Lines headed by an entry give the natural chain unless they say otherwise; changes in a name come on top.
UniProt O14746: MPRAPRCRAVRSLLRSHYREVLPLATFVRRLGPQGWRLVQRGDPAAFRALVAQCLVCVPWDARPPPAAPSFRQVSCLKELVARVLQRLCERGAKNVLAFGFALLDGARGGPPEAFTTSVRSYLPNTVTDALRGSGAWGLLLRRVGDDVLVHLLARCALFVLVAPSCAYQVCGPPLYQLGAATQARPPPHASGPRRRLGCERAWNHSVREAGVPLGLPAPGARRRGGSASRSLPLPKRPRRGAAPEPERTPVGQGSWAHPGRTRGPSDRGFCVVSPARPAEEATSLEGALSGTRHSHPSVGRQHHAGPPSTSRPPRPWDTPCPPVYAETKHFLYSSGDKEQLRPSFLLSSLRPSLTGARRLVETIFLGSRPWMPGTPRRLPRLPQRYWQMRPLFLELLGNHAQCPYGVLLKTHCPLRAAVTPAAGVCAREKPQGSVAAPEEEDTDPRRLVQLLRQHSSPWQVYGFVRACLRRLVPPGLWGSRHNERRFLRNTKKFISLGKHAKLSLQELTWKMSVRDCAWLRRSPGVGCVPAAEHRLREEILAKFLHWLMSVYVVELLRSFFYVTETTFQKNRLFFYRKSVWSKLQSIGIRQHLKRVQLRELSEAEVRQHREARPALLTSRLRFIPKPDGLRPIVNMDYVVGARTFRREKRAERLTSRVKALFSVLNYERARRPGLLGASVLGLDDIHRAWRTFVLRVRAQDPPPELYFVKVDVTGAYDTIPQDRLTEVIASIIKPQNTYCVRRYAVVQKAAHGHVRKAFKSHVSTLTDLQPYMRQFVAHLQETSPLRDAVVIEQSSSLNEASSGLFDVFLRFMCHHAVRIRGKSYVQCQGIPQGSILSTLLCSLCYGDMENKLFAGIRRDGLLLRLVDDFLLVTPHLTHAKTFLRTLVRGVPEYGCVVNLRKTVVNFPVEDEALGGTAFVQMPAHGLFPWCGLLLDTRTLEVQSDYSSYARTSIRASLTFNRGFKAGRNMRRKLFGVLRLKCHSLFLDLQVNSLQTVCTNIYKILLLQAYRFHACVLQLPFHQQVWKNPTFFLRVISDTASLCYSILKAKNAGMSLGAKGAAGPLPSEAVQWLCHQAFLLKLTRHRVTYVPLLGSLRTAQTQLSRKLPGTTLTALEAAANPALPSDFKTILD

Target: Telomerase reverse transcriptase (Homo sapiens) (UniProt O14746)
Assay: Inhibition of telomerase activity (unknown origin) in presence of UV irradiation

Structure (SMILES) | inhibition
Cc1cn([C@H]2C[C@H](OP(=O)(O)OC[C@H]3O[C@@H](n4cnc5c(=O)[nH]c(N)nc54)C[C@@H]3OP(=O)(O)OC[C@H]3O[C@@H](n4cnc5c(N)ncnc54)C[C@@H]3OP(=O)(O)OC[C@H]3O[C@@H](n4cnc5c(=O)[nH]c(N)nc54)C[C@@H]3OP(=O)(O)OC[C@H]3O[C@@H](n4ccc(N)nc4=O)C[C@@H]3OP(=O)(O)OC[C@H]3O[C@@H](n4cnc5c(=O)[nH]c(N)nc54)C[C@@H]3OP(=O)(O)OC[C@H]3O[C@@H](n4cc(C)c(=O)[nH]c4=O)C[C@@H]3OP(=O)(O)OC[C@H]3O[C@@H](n4cnc5c(N)ncnc54)C[C@@H]3OP(=O)(O)OC[C@H]3O[C@@H](n4cc(C)c(=O)[nH]c4=O)C[C@@H]3OP(=O)(O)OC[C@H]3O[C@@H](n4cnc5c(=O)[nH]c(N)nc54)C[C@@H]3OP(=O)(O)OC[C@H]3O[C@@H](n4cc(C)c(=O)[nH]c4=O)C[C@@H]3OP(=O)(O)OC[C@H]3O[C@@H](n4cnc5c(=O)[nH]c(N)nc54)C[C@@H]3OP(=O)(O)OC[C@H]3O[C@@H](n4cnc5c(N)ncnc54)C[C@@H]3OCC(C)(CO)C(=O)NCCCCC(Cl)C(OCc3ccccc3[N+](=O)[O-])OCc3ccccc3[N+](=O)[O-])[C@@H](COP(=O)(O)OCCOCCOCCOCCOCCOCCO)O2)c(=O)[nH]c1=O (some centres not stated) | inactive
Cc1cn([C@H]2C[C@H](OP(=O)(O)OC[C@H]3O[C@@H](n4cnc5c(=O)[nH]c(N)nc54)C[C@@H]3OP(=O)(O)OC[C@H]3O[C@@H](n4cnc5c(N)ncnc54)C[C@@H]3OP(=O)(O)OC[C@H]3O[C@@H](n4cnc5c(=O)[nH]c(N)nc54)C[C@@H]3OP(=O)(O)OC[C@H]3O[C@@H](n4ccc(N)nc4=O)C[C@@H]3OP(=O)(O)OC[C@H]3O[C@@H](n4cnc5c(=O)[nH]c(N)nc54)C[C@@H]3OP(=O)(O)OC[C@H]3O[C@@H](n4cc(C)c(=O)[nH]c4=O)C[C@@H]3OP(=O)(O)OC[C@H]3O[C@@H](n4cnc5c(N)ncnc54)C[C@@H]3OP(=O)(O)OC[C@H]3O[C@@H](n4cc(C)c(=O)[nH]c4=O)C[C@@H]3OP(=O)(O)OC[C@H]3O[C@@H](n4cnc5c(=O)[nH]c(N)nc54)C[C@@H]3OP(=O)(O)OC[C@H]3O[C@@H](n4cc(C)c(=O)[nH]c4=O)C[C@@H]3OP(=O)(O)OC[C@H]3O[C@@H](n4cnc5c(=O)[nH]c(N)nc54)C[C@@H]3OP(=O)(O)OC[C@H]3O[C@@H](n4cnc5c(N)ncnc54)C[C@@H]3OCCOCCOCCOCCOCCOCCO)[C@@H](COP(=O)(O)OCC(C)(CO)C(=O)NCCCCC(Cl)C(OCc3ccccc3[N+](=O)[O-])OCc3ccccc3[N+](=O)[O-])O2)c(=O)[nH]c1=O (some centres not stated) | inactive

Active and inactive are the calls of the source. The rule behind the calls is not given here.
